Source: US6713266B1 (Isodiagnostika Inc., priority 1998, dated 2004)

Tests used:
Type in all cases: binding
[1] = tested on: Mouse polyclonal sera (AM19-9-DVS-KLH immunogens); assay: Antigen panel (direct) ELISA, mouse polyclonal sera; settings: for Percent reactivity: OD to test antigen / OD to AM19-9-DVS-HSA × 100; for OD: coated test antigen
Protocol: (§1) 1. Use Falcon Pro-bind immunoplate.
(§2) 2. Dilute coating antigen (Ag) to 1.0 μg/mL in carbonate-bicarbonate buffer. Use glass tubes.
(§3) 3. Add 100 μL to each well of plate. Store overnight at 4° C.
(§4) 4. Shake out wells and wash 3× with 200 μL PBS/0.05% TWEEN™ (polyoxyethylene-sorbitol) (v/v) per well.
(§5) 5. Add blocking buffer, 200 μL per well (PBS/2% BSA (w/v)). Incubate for 60 min at 37° C.
(§6) 7. Add 100 μL per well of test antibody appropriately diluted in PBS/0.1% Tween (v/v). Incubate 60 min at 37° C.
(§7) 9. Dilute alkaline phosphatase conjugated anti-mouse IgG (Pierce cat #31322) in PBS/0.1% TWEEN™ (polyoxyethylene-sorbitol) (v/v) to 1:2000 concentration. Add 100 μL per well and incubate at 37° C. for 60 min.
(§8) 10. Wash 3× as in step 4.
(§9) 11. Prepare enzyme substrate using Sigma #104 alkaline phosphatase substrate tablets (1 mg/mL in 10% diethanolamine (v/v) substrate buffer). Add 100 μL per well and incubate in the dark at room temperature. Absorbance can be read at 405 nm at approximately 15-min intervals.
Sera from mice immunized with the AM19-9-DVS immunogen showing high reactivity to the AM19-9-DVS hapten were further characterized by antigen panel ELISA (Table 9).

[2] = tested on: Mouse polyclonal sera (AM1-DVS-KLH immunogens); assay: as above; settings: for Percent reactivity: OD to test antigen / OD to CSA-DVS-HSA × 100; for OD: coated test antigen
Protocol: as §1, §2, §3, §4, §5, §6, §7, §8, §9
Individual mouse sera collected 10 days post-secondary and tertiary immunizations were assayed for antibody titre by direct ELISA. Mice having high anti-CSA titres were assayed for specificity by antigen panel reactivity.

[3] = tested on: Mouse polyclonal sera (CSA-DVS-KLH immunogen); assay: as above; settings: for Percent reactivity: OD to test antigen / OD to CSA-DVS-HSA × 100; for OD: coated test antigen
Protocol: as §1, §2, §3, §4, §5, §6, §7, §8, §9
These sera had low reactivity to the AM19-9-DVS-HSA conjugate.

[4] = tested on: Mouse polyclonal sera (AM19-1-DVS (2) - KLH immunogen); assay: as above; settings: for Percent reactivity: OD to test antigen/OD to AM19-1-DVS (2) × 100; for OD: coated test antigen
Protocol: as §1, §2, §3, §4, §5, §6, §7, §8, §9
(§10) These serum samples were assayed by direct ELISA for antibody titre to specific haptens. Sera showing high antibody reactivity to AM19 were further characterized by antigen panel ELISA (Table 6).

[5] = tested on: Mouse polyclonal sera (AM19-1-DVS (1) - KLH immunogen); assay: as above; settings: for Percent reactivity: OD to test antigen/OD to AM19-1-DVS (1) × 100; for OD: coated test antigen
Protocol: as §1, §2, §3, §4, §5, §6, §7, §8, §9, §10

[6] = tested on: Mouse polyclonal sera (AM9-9-DVS-KLH immunogen); assay: as above; settings: for Percent reactivity: OD to test antigen/ OD to AM19-9-DVS-HSA × 100; for OD: coated test antigen
Protocol: as §1, §2, §3, §4, §5, §6, §7, §8, §9
Sera from mice immunized with the AM9-9-DVS immunogen which reacted strongly to the AM19-9-DVS hapten were further characterized by antigen panel ELISA (Table 13). Sera from these mice recognize epitopes on the AM19-9-DVS-HSA molecule. […] The reduction in antibody binding to panel antigens coupled through the amino acid #1 residue is presumed to be due to masking of the Ab epitope recognition site. As the AM9-9-DVS immunogens would present the amino acid #1 face of the molecule for immune recognition, blocking the amino acid #1 residue with the DVS linker arm would thereby block Ab/Ag interaction.

[7] = tested on: Mouse monoclonal antibody AM19-1-7E12-1; assay: Antigen panel (direct) ELISA, MoAb tissue culture supernatant; settings: for Percent reactivity: AM19-1-7E12-1, OD to test antigen / OD to AM19-1-DVS (1)-HSA × 100; for OD: AM19-1-7E12-1 TCS, coated test antigen
Protocol: as §1, §2, §3, §4, §5, §6, §7, §8, §9
(§11) Spleen cells from mice immunized with the AM19-1-DVS (1) conjugate have been used to prepare MoAb secreting hybridoma cells. Anti-AM19-1-DVS (1) ELISA reactive IgM and IgG MoAb isotypes have been isolated. Table 19 illustrates the reactivity of TCS from two of these anti-AM19-1-DVS MoAbs (AM19-1-7E12-1 and AM19-1-7E12-2).

[8] = tested on: Mouse monoclonal antibody AM19-1-7E12-2; assay: as above; settings: for Percent reactivity: AM19-1-7E12-2, OD to test antigen / OD to AM19-1-DVS (1)-HSA × 100; for OD: AM19-1-7E12-2 TCS, coated test antigen
Protocol: as §1, §2, §3, §4, §5, §6, §7, §8, §9, §11

[9] = tested on: Mouse monoclonal antibody CSA-2G9; assay: as above; settings: for Percent reactivity: CSA-2G9, OD to test antigen / OD to CSA-DVS-HSA × 100; for OD: CSA-2G9 TCS, coated test antigen
Protocol: as §1, §2, §3, §4, §5, §6, §7, §8, §9
(§12) Spleen cells from mice immunized with the CSA-DVS conjugate have been used to prepare monoclonal antibody secreting hybridoma clones. IgM and IgG anti-CSA secreting clones have been isolated. Table 15 illustrates the reactivity of tissue culture supernatants (TCS) from two of these anti-CSA MoAbs (CSA-1H6 and CSA-2G9).

[10] = tested on: Mouse monoclonal antibody CSA-1H6; assay: as above; settings: for Percent reactivity: CSA-1H6, OD to test antigen / OD to CSA-DVS-HSA × 100; for OD: CSA-1H6 TCS, coated test antigen
Protocol: as §1, §2, §3, §4, §5, §6, §7, §8, §9, §12

[11] = tested on: Mouse monoclonal antibody AM1-2E10; assay: as above; settings: for Percent reactivity: AM1-2E10, OD to test antigen / OD to CSA-DVS-HSA × 100; for OD: AM1-2E10 TCS, coated test antigen
Protocol: as §1, §2, §3, §4, §5, §6, §7, §8, §9
(§13) Spleen cells from mice immunized with the AM1-DVS conjugates have been used to prepare monoclonal antibody secreting hybridoma cells. IgM and IgG anti-CSA MoAbs have been isolated by direct ELISA to CSA-DVS-HSA conjugates. Table 17 illustrates the reactivity of TCS from two of these monoclonal antibody clones (AM1-2E10 and Am1-7F5).

[12] = tested on: Mouse monoclonal antibody AM1-7F5; assay: as above; settings: for Percent reactivity: AM1-7F5, OD to test antigen / OD to CSA-DVS-HSA × 100; for OD: AM1-7F5 TCS, coated test antigen
Protocol: as §1, §2, §3, §4, §5, §6, §7, §8, §9, §13

[13] = tested on: Mouse polyclonal sera (AM9-1-DVS-KLH immunogen); assay: Antigen panel (direct) ELISA, mouse polyclonal sera; settings: for Percent reactivity: OD to test antigen / OD to AM9-1-DVS-HSA × 100; for OD: coated test antigen
Protocol: as §1, §2, §3, §4, §5, §6, §7, §8, §9
The reduction in antibody binding to the AM19-9 hapten is presumed to be due to masking of the epitope recognition site, (i.e., blocking the modified a.a. #9 residue with the DVS linker arm would thereby block Ab/Ag interaction). […] Screening for specific anti-AM9 MoAbs can also be achieved.

“AM9-1-DVS-HSA: AM9-DVS hapten (DVS through secondary hydroxyl of amino acid 1) conjugated to HSA” showed a Percent reactivity ([1]; Mouse 5) of 7.2%, an OD ([1]; Mouse 5) of 0.232 and a Percent reactivity ([1]; Mouse 6) of 14.0%. For the same substance, the OD ([1]; Mouse 6) was 0.457, the Percent reactivity ([2]; Mouse 1) was greater than 100% and the OD ([2]; Mouse 1) was 1.037. It also gave a Percent reactivity ([2]; Mouse 2) greater than 100%, an OD ([2]; Mouse 2) of 0.966 and a Percent reactivity ([3]; Mouse 1) greater than 100%. For the same substance, the OD ([3]; Mouse 1) was 1.304, the Percent reactivity ([3]; Mouse 2) was greater than 100% and the OD ([3]; Mouse 2) was 1.218. The Percent reactivity ([4]; Mouse 3) was 97.2%, the OD ([4]; Mouse 3) was 1.372 and the Percent reactivity ([4]; Mouse 4) was 82.9%. For the same substance, the OD ([4]; Mouse 4) was 2.134, the Percent reactivity ([5]; Mouse 1) was 81.8% and the OD ([5]; Mouse 1) was 2.683. The Percent reactivity ([5]; Mouse 2) was 96.4%, the OD ([5]; Mouse 2) was 2.920 and the Percent reactivity ([6]; Mouse 1) was 8.2%. For the same substance, the OD ([6]; Mouse 1) was 0.252, the Percent reactivity ([6]; Mouse 2) was 0% and the OD ([6]; Mouse 2) was 0. It also gave a Percent reactivity ([6]; Mouse 3) of 0%, an OD ([6]; Mouse 3) of 0 and a Percent reactivity [7] greater than 100%. For the same substance, the OD [7] was 3.268, the Percent reactivity [8] was 95.5% and the OD [8] was 3.167. For the same substance, the Percent reactivity [9] was greater than 100%, the OD [9] was 2.978 and the Percent reactivity [10] was greater than 100%. The OD [10] was 1.904, the Percent reactivity [11] was greater than 100% and the OD [11] was 1.750. The Percent reactivity [12] was greater than 100%, the OD [12] was 2.465 and the Percent reactivity ([13]; Mouse 1) was 100%. The OD ([13]; Mouse 1) was 1.941, the Percent reactivity ([13]; Mouse 2) was 100% and the OD ([13]; Mouse 2) was 2.443.

Work on “AM19-1-DVS-HSA (1): AM19-DVS hapten (DVS through secondary hydroxyl of amino acid 1) conjugated to HSA” yielded a Percent reactivity ([1]; Mouse 5) greater than 100%, an OD ([1]; Mouse 5) of 3.411 and a Percent reactivity ([1]; Mouse 6) of 92.5%. The OD ([1]; Mouse 6) was 3.022, the Percent reactivity ([2]; Mouse 1) was greater than 100% and the OD ([2]; Mouse 1) was 1.075. The Percent reactivity ([2]; Mouse 2) was greater than 100%, the OD ([2]; Mouse 2) was 1.244 and the Percent reactivity ([3]; Mouse 1) was greater than 100%. For the same substance, the OD ([3]; Mouse 1) was 1.099, the Percent reactivity ([3]; Mouse 2) was greater than 100% and the OD ([3]; Mouse 2) was 1.462. For the same substance, the Percent reactivity ([4]; Mouse 3) was 83.7%, the OD ([4]; Mouse 3) was 1.181 and the Percent reactivity ([4]; Mouse 4) was 91.4%. The OD ([4]; Mouse 4) was 2.351, the Percent reactivity ([5]; Mouse 1) was 100% and the OD ([5]; Mouse 1) was 3.281. For the same substance, the Percent reactivity ([5]; Mouse 2) was 100%, the OD ([5]; Mouse 2) was 3.028 and the Percent reactivity ([6]; Mouse 1) was 0%. The OD ([6]; Mouse 1) was 0.018, the Percent reactivity ([6]; Mouse 2) was 0% and the OD ([6]; Mouse 2) was 0. For the same substance, the Percent reactivity ([6]; Mouse 3) was 43.1%, the OD ([6]; Mouse 3) was 0.777 and the Percent reactivity [7] was 100%. The OD [7] was 3.226, the Percent reactivity [8] was 100% and the OD [8] was 3.316. It also gave a Percent reactivity [9] greater than 100%, an OD [9] of 2.731 and a Percent reactivity [10] of 91.7%. The OD [10] was 1.390, the Percent reactivity [11] was 100% and the OD [11] was 1.546. The Percent reactivity [12] was greater than 100%, the OD [12] was 2.283 and the Percent reactivity ([13]; Mouse 1) was greater than 100%. The OD ([13]; Mouse 1) was 2.683, the Percent reactivity ([13]; Mouse 2) was greater than 100% and the OD ([13]; Mouse 2) was 2.750.
